Literature values as cited in PMC12202309 (International Journal of Neuropsychopharmacology, 2025).

Settings: cited from earlier work

Cc1cc2c(s1)Nc1ccccc1N=C2N1CCN(C)CC1 [olanzapine]
Biopharmaceutical Classification System class: Class II
